Earlier results, collected in paper PMC6925260 (Nature Communications, 2019).

Conditions: pH 7.2; cited from earlier work

CN(CCOc1ccc(CC2SC(=O)NC2=O)cc1)c1ccccn1 (stereo not shown) [Rosiglitazone]
R/S interconversion half-life: 3 h
